Measurements taken from PubChem BioAssay AID720502 (National Center for Advancing Translational Sciences (NCATS), 2013).
The entries are a selection whose mix differs from that of the whole data set. Results filed as inconclusive are left out. Active and inactive are the calls of the source. Calls follow the shape of the dose curve; as a rule, active = well fitted inhibition curve with a large enough effect; inconclusive = small, poorly fitted or top-dose-only effect, or another doubt; inactive = no such curve, though single readings can be large or run the other way.

Protein sequences, listed by entry. Tags and fused reporters are not part of them. Lines headed by an entry give the natural chain unless they say otherwise; changes in a name come on top.
UniProt Q9Y253: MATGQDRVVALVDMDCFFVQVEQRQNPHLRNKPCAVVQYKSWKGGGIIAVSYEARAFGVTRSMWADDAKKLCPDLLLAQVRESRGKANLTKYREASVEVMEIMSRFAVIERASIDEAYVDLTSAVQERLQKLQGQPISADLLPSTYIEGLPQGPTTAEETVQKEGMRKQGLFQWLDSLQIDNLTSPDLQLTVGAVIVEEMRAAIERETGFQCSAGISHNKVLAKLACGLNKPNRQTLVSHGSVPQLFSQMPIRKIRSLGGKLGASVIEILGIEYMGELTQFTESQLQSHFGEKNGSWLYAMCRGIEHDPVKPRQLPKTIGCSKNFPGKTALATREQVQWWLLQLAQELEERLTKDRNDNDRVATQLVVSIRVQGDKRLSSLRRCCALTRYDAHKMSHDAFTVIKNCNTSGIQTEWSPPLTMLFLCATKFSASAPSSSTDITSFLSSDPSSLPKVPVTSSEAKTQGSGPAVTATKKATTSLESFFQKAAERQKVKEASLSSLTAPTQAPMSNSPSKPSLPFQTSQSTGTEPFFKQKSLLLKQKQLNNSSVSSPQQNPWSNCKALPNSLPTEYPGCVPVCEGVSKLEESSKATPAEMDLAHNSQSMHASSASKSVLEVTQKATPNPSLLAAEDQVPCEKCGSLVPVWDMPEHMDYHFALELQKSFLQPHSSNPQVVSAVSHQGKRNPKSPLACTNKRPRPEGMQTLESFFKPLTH

target: DNA polymerase eta (Homo sapiens) (UniProt Q9Y253); experiment: qHTS for Inhibitors of Polymerase Eta: Confirmatory Assay for Cherry-picked Compounds; settings: Pol eta primer extension, TAMRA/BHQ fluorescence, 10 min
From the text: The Y-family of DNA polymerases, such as the Polymerase Eta (Pol eta), are specifically involved in DNA repair. Pol eta copies undamaged DNA with a lower fidelity than other DNA-directed polymerases. However, it accurately replicates UV-damaged DNA. When thymine dimers are present, this polymerase inserts the complementary nucleotides in the newly synthesized DNA, thereby bypassing the lesion and suppressing the mutagenic effect of UV-induced DNA damage. […] Thus, while Pol eta's (and most likely iota's) normal function is to protect humans against the deleterious consequences of DNA damage, under certain conditions they can have deleterious effects on human health. As a consequence, small molecule inhibitors of Pol eta (identified from a high throughput replication assay) have potential therapeutic applications. A 1536-well format, fluorescence based, high-throughput screen (AID 588591) is developed in collaboration with the National Institute of Child Health & Human Development (NICHD) to screen for inhibitors of the Pol eta enzyme. This screen is used to validate the activity of the selected compounds from the primary assay against the human Pol eta. Inhibition is the desired outcome for this assay. NIH Chemical Genomics Center [NCGC] NIH Molecular Libraries Probe Centers Network [MLPCN] MLPCN Grant: MH090825 Assay Submitter (PI): Roger Woodgate, NICHD
Three microliters of reagents (buffer in column 3 and 4 as negative control while 10 nM Pol eta in columns 1, 2, and 5-48) were dispensed into a 1536-well black solid-bottom plate. Compounds (23 nL) were transferred via Kalypsys pin tool equipped with 1536-pin array. The plates were then incubated for 15 min at room temperature, and 1 uL of substrate was added to start the reaction for a final concentration of 50 nM. The substrate was made by the annealing of unlabeled oligodeoxynucleotide primer (59-[…]-39) and TAMRA-labeled reporter strand (59-[…]-6-TAMRA-39) to oligodeoxynucleotide template labeled with BHQ-2 (59-BHQ-2-[…]-39) described in detail at the Yamanaka et.al. (PLOS, 2012) reference paper. The assay plates were initially read after 0 min and again after 10 min of kinetic reaction using the PerkinElmer Viewlux reader equipped with 525 nm excitation and 598 nm emission filters.
Potency is read from the fitted curve at half-maximal effect.

| SMILES | Potency |
| --- | --- |
| O=c1c2cc([N+](=O)[O-])ccc2[nH]c2c([N+](=O)[O-])cc([N+](=O)[O-])cc12 | active: 75.7 µM |
| Nc1cccc2ccc([As](=O)(O)O)cc12 | active: 47.8 µM |
| CCc1nc2c(n1)c1c(non1O)c1c2no[n+]1[O-] | active: 84.9 µM |
| Nc1cccc2c([As](=O)(O)O)cccc12 | active: 37.9 µM |
| N#Cc1c(-c2ccc(-c3no[n+]([O-])c3C#N)cc2)no[n+]1[O-] | active: 84.9 µM |
